Values of other authors in patent US20220313686A1, “PHARMACEUTICAL COMPOSITIONS COMPRISING A COMBINATION OF OPIOID ANTAGONISTS” (YISSUM RESEARCH DEVELOPMENT COMPANY OF THE HEBREW …, priority 2019, published 2022).

Test system: opioid receptors
Conditions: in vivo; cited from earlier work

C=CCN1CC[C@]23c4c5ccc(O)c4O[C@H]2C(=O)CC[C@@]3(O)[C@H]1C5 [Naloxone, 17-allyl-4,5α-epoxy-3,14-dihydroxymorphinan-6-one]
duration of effect: lasts for about an hour
onset of action: acts within minutes
